One data set deals with IRAK4 (Homo sapiens, UniProt Q9NWZ3). The data set can be described thus: IRAK4 MSD Biochemical Assay (1 mM ATP, 2 h).
The target in data set [1] is human MDR1 transfected MDCK cells (Homo sapiens, UniProt P08183). The data set is described as follows: MDR1-MDCK assay (efflux ratio). The settings on record: 1 μM compound, 120 minutes incubation. The method, then:
• The assay makes use of human MDR1 transfected MDCK cells (NIH cell line in-licensed from Absorption Systems) • The compounds are tested at 1 μM concentration prepared in transport buffer (Hank's balanced salt solution with HEPES) • MDR1-MDCK cell are cultured for 7 days in 96 well transwell insert plates (Corning). Insert plates are washed before the assay and TEER (Trans epithelial electric resistance) is measured. • These plates are loaded with test compound solution 85 μL for A-B transport and 260 μL for B-A transport in the respective donor compartment. The volume of receiver buffer (Transport buffer supplemented with 1% BSA) in the respective receiver compartment is 250 and 75 μL. • 10 μL samples is taken from donor compartment (T=0 timepoint) • Assay plates are incubated for 120 minutes. • At 120 minutes (T=120 timepoint) samples from respective donor (10 uL) and receiver (50 μL) compartments is taken. • After addition of 40 μL transport buffer with BSA to donor samples, crash solution (Acetonitrile with internal standard, 110 μL) is added to all samples. • After centrifugation 50 μL supernatant is transferred to separate plate and mixed with 50 μL water. • Samples are analyzed using LC-MS/MS coupled with high throughput injection system. • Analyte/internal standard area ratios are used for apparent permeability (Papp), efflux ratio and mass recovery estimation based on equations below.
Mass balance=100×((Vr×Cr^final)+(Vd×Cd^final))/(Vd×CE) • Where: • dCr/dt is the cumulative concentration in the receiver compartment versus time in μM s^−1 • Vr is the volume of the receiver compartment in cm^3 • Vd is the volume of the donor compartment in cm^3 • A is the area of the insert (0.143 cm^2 for 96-well insert) • CE is the estimated experimental concentration (Time=0) of the dosing solution • Cr^final is the concentration of the receiver at the end of the incubation period • Cd^final is the concentration of the donor at the end of the incubation period.

Sequences of proteins named here, by UniProt entry; tags and fusion partners are left off.
UniProt Q9NWZ3, whole entry: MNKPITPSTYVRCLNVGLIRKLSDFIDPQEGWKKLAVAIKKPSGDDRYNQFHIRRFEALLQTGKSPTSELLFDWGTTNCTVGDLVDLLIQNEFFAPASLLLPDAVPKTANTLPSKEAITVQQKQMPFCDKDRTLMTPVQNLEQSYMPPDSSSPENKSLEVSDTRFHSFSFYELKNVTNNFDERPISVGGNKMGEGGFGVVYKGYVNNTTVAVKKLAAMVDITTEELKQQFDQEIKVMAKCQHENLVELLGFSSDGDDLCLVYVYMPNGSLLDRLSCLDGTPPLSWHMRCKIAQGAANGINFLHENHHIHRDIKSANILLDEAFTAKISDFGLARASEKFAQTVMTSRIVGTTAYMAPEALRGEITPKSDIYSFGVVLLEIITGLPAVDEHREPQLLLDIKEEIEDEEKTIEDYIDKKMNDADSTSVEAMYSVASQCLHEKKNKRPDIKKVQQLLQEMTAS
UniProt P08183, whole entry: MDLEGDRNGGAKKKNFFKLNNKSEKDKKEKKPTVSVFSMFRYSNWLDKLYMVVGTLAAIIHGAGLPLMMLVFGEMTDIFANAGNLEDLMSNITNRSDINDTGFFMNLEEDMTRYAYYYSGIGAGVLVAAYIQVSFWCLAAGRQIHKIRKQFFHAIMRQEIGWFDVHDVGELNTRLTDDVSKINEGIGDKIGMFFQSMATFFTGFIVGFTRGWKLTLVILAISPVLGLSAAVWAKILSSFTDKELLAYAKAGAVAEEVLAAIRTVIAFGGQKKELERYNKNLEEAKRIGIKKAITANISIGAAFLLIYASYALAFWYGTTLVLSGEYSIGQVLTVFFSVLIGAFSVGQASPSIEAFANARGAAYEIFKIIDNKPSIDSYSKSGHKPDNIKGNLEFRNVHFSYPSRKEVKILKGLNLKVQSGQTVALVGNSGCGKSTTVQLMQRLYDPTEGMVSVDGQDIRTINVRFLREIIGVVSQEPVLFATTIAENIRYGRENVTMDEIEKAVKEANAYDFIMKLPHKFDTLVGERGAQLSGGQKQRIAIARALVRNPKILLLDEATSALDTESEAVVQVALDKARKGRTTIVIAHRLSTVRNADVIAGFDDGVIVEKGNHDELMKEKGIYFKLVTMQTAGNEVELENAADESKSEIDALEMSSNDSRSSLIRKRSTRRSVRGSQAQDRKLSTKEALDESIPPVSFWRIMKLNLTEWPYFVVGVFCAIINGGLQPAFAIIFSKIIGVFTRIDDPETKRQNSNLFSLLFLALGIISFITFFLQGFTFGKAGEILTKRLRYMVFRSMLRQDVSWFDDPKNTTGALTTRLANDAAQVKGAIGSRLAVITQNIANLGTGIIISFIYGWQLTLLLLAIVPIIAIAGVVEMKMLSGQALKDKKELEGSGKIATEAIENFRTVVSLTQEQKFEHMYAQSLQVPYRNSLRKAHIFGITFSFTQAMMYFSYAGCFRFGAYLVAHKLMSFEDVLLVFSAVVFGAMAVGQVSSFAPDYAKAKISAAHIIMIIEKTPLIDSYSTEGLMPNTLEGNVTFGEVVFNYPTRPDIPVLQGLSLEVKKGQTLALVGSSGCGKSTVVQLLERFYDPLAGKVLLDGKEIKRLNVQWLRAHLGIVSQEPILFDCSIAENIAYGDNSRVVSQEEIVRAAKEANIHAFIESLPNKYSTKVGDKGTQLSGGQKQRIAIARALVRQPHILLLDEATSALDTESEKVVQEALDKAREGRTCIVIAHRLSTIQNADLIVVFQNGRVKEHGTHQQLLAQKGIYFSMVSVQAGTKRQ

Where two headings read alike, the source gives them in different places.

With `CC(C)Oc1cc2nn(C3CCOCC3)cc2cc1C(=O)Nc1ccccn1`, the IC50 (in general, the concentration that inhibits the measured activity by half) on IRAK4 (read-out: IRAK4 MSD Biochemical Assay (1 mM ATP, 2 h) IC50, room temperature, tested form: formate) stood at 9.9 nM. In addition, the MDR1-MDCK Efflux Ratio; (B-A/A-B) in data set [1] (tested form: formate) was 1.6.

As to `Cc1cccc(NC(=O)c2cc3cn(CC4CCOC4)nc3nc2OC(C)C)c1F` (stereo not drawn), the IC50 on IRAK4 (read-out: IRAK4 MSD Biochemical Assay (1 mM ATP, 2 h) IC50, room temperature) was found to be 1.3 nM. Also, the MDR1-MDCK Efflux Ratio; (B-A/A-B) in data set [1] stood at 1.

On to `CC(C)Oc1cc2nn(C3CCOCC3)cc2cc1C(=O)Nc1nccc(C(F)F)n1`, for which the IC50 at IRAK4 (read-out: IRAK4 MSD Biochemical Assay (1 mM ATP, 2 h) IC50, room temperature, tested form: HCl) was 15.4 nM. Besides, in data set [1] (tested form: HCl), the MDR1-MDCK Efflux Ratio; (B-A/A-B) was 5.4.

(Values after patent US20230002361A1, “2H-INDAZOLE DERIVATIVES AND THEIR USE IN THE TREATMENT OF DISEASE” (BIOGEN MA INC., priority 2019, published 2023).)
